The entries are a selection whose mix differs from that of the whole data set. The source made the active and inactive calls.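 Rule for the calls: active = inhibition above the mean inhibition of all tested compounds plus 3 SD (cut at about 17% in these data); inactive = the rest.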

In this test the target is Troponin I, cardiac muscle (Homo sapiens) + Troponin T, cardiac muscle (Homo sapiens) + Troponin C, slow skeletal and cardiac muscles (Homo sapiens) (UniProt P19429+P45379+P63316). Description: cardiac RTF calcium sensitivity inhibitors, primary screen, biochemical, IANBD-TnC fluorescence, EC70 calcium (AID 493244).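 Note: assay run at fixed EC70 calcium of 1.6 mM.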 To be noted: IANBD-labeled cardiac RTF, Ca2+ fluorescence; at 7.15 µM; hits give high values.
With `O=P(Nc1ccccn1)(c1cccc2ccccc12)c1cccc2ccccc12`, the inhibition – broadly, the drop in the measured response relative to a control, in per cent – is inactive: 1.61%.

Turning to `O=[N+]([O-])c1ccc(Nc2ccc(Oc3ccc([N+](=O)[O-])cc3[N+](=O)[O-])cc2)c([N+](=O)[O-])c1`, the inhibition was inactive: -6.85%.

On to `COP1(=S)c2c(C)nn(CCC#N)c2N=C(c2ccc(F)cc2)N1C` (centres undefined), for which the inhibition is inactive: -8.3%.

Turning to `O=C(COc1ccccc1)OC1CN2CCC1CC2` (centres undefined), the inhibition was inactive: -7.02%.

In the case of `O=C(Nc1ccncc1[N+](=O)[O-])c1ccc([N+](=O)[O-])cc1[N+](=O)[O-]`, the inhibition is inactive: 2.19%.

As for `O=C(OC1CN2CCC1CC2)c1cccc([N+](=O)[O-])c1` (centres undefined), the inhibition is inactive: -0.92%.

With `CCOC(=O)c1ccc(NC(=O)C(C)(CCl)SC)cc1` (centres undefined), the inhibition is inactive: -2.94%.

As to `CCC(C)N(CC(C)C)C(=S)SC(NC(C)=O)C(Cl)(Cl)Cl` (centres undefined), the inhibition was inactive: 2.38%.

For `Cc1c2c(nc3ccccc13)SC(C(Cl)Cl)C2` (centres undefined), the inhibition is inactive: 6.85%.

In the case of `O=C(OC1CN2CCC1CC2)C12CC3CC(CC(C3)C1)C2` (centres undefined), the inhibition is inactive: -1.57%.

Consider `Cc1cc(=O)[nH]c(N[N+](=O)[O-])n1`, for which the inhibition is inactive: -3.47%.

`O=P1(N(CCCl)CCCl)Nc2ccccc2N1`: the inhibition was inactive: -0.41%.

Consider `O=P1(N(CCCl)CCCl)OCCCN1CCCl` (centres undefined), for which the inhibition was inactive: -5.95%.

As for `COc1ccc2nc(NP(=O)(c3ccccc3)c3ccccc3)sc2c1`, the inhibition was inactive: 0.38%.

As to `COc1cc(I)ccc1[As](=O)(O)O`, the inhibition is inactive: -10.8%.

Take `O=[N+]([O-])c1cc(Oc2ccc([N+](=O)[O-])cc2C(F)(F)F)cc([N+](=O)[O-])c1`: the inhibition was inactive: -5.19%.

For the molecule `COc1ccc(N/C(=N/P(=O)(N2CCOCC2)N2CCOCC2)N2CCOCC2)cc1`, the inhibition was inactive: 1.68%.

Consider `C[As](=O)(O)c1cccc(C(=O)O)c1`, for which the inhibition is inactive: -0.38%.

In the case of `O=[As](O)(c1ccc(O)cc1)c1ccccc1O`, the inhibition was inactive: -10.6%.

`COc1cc(C(=O)NCC2(N3CCOCC3)CCCCC2)ccc1OCC(C)C`: the inhibition is inactive: -1.59%.

In the case of `O=[N+]([O-])c1ccc(-c2cc([N+](=O)[O-])c(O)c([N+](=O)[O-])c2)cc1`, the inhibition was inactive: 3.35%.

As for `Cc1ccc(OP(=O)(Nc2ccc([N+](=O)[O-])cn2)Oc2ccc(C)cc2)cc1`, the inhibition is inactive: -0.23%.

Regarding `Cc1ccc2nc3c(c(C)c2c1)CC(C(Cl)Cl)S3` (centres undefined), the inhibition was inactive: -27.7%.

Turning to `ClCCSc1nnc(-c2cccnc2)o1`, the inhibition was inactive: -2.96%.

Turning to `CC(C)c1ccc(OP(=O)(Nc2ccccn2)Oc2ccccc2F)cc1` (centres undefined), the inhibition is inactive: -10.4%.

For the molecule `COC(=O)C1(C)COP(=O)(N2CCCCCC2)OC1` (centres undefined), the inhibition is inactive: -13.1%.

As to `CCN(CC)C(=S)SC(NC=O)C(Cl)(Cl)Cl` (centres undefined), the inhibition is inactive: -2.34%.

Consider `O=C(OC1CN2CCC1CC2)c1cccc2[nH]cnc12` (centres undefined), for which the inhibition was inactive: -4.09%.

Regarding `O=[N+]([O-])c1cc([N+](=O)[O-])c(-c2ccn[nH]2)s1`, the inhibition is inactive: -9.09%.

The values above are taken from PubChem BioAssay AID493244 (The Scripps Research Institute Molecular Screening Center, 2011).
